From ChEMBL document CHEMBL4390642, “The in vivo antinociceptive and μ-opioid receptor activating effects of the combination of N-phenyl-2',4'-dimethyl-4,5'-bi-1,3-thiazol-2-amines and naloxone” (Eur J Med Chem, 2019)

By UniProt entry, the sequences of proteins in these tests, tags left out.
UniProt P35372, whole entry: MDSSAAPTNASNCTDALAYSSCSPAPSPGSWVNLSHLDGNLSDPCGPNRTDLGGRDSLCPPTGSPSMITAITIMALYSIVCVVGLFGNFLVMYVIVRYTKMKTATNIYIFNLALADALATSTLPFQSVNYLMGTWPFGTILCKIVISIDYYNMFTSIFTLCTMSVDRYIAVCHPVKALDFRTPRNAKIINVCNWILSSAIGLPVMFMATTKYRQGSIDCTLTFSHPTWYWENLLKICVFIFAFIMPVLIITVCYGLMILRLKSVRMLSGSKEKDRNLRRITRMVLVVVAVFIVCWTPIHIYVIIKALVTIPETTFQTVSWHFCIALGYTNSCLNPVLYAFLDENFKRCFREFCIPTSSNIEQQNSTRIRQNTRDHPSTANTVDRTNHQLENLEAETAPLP

Experiments:
Assay type in all cases: functional, cell-based
Mu-type opioid receptor [1] = molecular target: T1, Mu-type opioid receptor (Homo sapiens, UniProt P35372); test: Agonist activity at human mu opioid receptor expressed in CHOK1 cells coexpressing Galpha15 assessed as increase in intracellular calcium flux by measuring Emax in the presence of mu opioid receptor antagonist naltrexone and incubated for 1 hr measured for 90 secs at 1.5 sec interval by FLIPR assay
Mu-type opioid receptor [2] = molecular target: T1, Mu-type opioid receptor; test: Agonist activity at human mu opioid receptor expressed in CHOK1 cells coexpressing Galpha15 assessed as intracellular calcium AUC (0 to 90 secs) in the presence of mu opioid receptor antagonist naltrexone by FLIPR assay relative to morphine
Mu-type opioid receptor [3] = molecular target: T1, Mu-type opioid receptor; test: Agonist activity at human mu opioid receptor expressed in CHOK1 cells coexpressing Galpha15 assessed as increase in intracellular calcium flux by measuring Emax in the presence of mu opioid receptor antagonist naloxone and incubated for 1 hr measured for 90 secs at 1.5 sec interval by FLIPR assay

## CCc1ccccc1Nc1nc(-c2sc(C)nc2C)cs1
Mu-type opioid receptor [1]
  Emax: 14000 to 18000
Mu-type opioid receptor [2]
  Activity: 70.7 to 90.9%
Mu-type opioid receptor [3]
  Emax: 10000 to 14000
